Measured values taken from PubChem BioAssay (EPA / NIEHS).
Values joined by “and” are separate entries in the source; they are usually repeats but may differ in a detail not shown here. Identical values can stand only once. Only a part is listed here, and it is no random draw. Results filed as inconclusive are left out. Active and inactive are the calls of the source. How the source made its calls, unless noted: active means hit-call score of the fitted dose curve at least 0.9, where 1 is the maximum; inactive means score below 0.9.

Protein sequences, listed by entry. Tags and fused reporters are not part of them. Lines headed by an entry give the natural chain unless they say otherwise; changes in a name come on top.
UniProt P16581: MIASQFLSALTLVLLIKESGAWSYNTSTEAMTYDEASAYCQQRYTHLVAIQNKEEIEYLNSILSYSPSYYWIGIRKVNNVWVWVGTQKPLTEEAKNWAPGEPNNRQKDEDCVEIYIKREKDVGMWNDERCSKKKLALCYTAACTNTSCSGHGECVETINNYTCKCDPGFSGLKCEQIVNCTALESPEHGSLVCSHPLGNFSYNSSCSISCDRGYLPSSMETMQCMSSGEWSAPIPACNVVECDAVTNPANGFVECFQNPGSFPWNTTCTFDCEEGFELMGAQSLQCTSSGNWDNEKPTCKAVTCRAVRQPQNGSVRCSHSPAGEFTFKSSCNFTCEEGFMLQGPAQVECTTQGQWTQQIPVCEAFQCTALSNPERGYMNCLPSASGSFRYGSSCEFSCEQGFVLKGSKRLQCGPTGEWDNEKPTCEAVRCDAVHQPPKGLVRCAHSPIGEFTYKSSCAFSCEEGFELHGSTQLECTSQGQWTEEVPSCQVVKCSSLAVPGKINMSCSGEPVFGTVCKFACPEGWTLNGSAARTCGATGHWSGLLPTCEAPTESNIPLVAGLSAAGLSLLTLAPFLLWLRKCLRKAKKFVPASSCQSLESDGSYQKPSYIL
UniProt P11511: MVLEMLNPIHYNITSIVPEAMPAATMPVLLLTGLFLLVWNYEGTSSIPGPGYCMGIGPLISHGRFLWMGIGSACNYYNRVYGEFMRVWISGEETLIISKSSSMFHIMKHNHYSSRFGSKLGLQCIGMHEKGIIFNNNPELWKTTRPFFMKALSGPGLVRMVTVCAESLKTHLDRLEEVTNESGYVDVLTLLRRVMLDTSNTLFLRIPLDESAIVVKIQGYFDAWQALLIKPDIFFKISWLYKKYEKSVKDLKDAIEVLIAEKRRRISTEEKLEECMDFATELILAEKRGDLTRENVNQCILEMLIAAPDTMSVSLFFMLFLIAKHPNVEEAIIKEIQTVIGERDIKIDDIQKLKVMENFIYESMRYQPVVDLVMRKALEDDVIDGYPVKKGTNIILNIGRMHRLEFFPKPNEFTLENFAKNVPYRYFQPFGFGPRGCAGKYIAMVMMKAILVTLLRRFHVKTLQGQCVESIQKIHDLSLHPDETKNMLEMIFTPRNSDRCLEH
UniProt P11509: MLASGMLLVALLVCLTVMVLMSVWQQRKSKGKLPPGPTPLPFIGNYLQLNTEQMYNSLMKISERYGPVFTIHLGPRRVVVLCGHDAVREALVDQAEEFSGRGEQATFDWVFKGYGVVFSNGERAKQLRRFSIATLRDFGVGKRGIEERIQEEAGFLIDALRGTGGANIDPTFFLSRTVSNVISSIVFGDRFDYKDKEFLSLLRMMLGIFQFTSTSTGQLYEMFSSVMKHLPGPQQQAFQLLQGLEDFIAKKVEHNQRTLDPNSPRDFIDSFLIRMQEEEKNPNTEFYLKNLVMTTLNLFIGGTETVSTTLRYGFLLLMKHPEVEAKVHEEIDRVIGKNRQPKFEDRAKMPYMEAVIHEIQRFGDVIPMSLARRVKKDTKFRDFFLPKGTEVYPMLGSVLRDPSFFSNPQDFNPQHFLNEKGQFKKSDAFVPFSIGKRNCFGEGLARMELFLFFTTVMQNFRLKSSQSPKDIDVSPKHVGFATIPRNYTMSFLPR

Legend:
CD69, CD69 (gene 969) = assay: BSK_SAg_CD69: BioMAP Diversity Plus: SAg Assay for CD69 Biomarker Activity (AID 2283089); conditions: actives raise or lower the signal; primary human HUVEC with PBMC;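 on AC50: cell surface CD69 protein quantified by ELISA with fluorescence detection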
Outline: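 Primary human vascular co-culture (umbilical vein endothelium with peripheral blood mononuclear cells) exposed to test chemical for 24 h. CD69 levels quantified by fluorescence ELISA; DMSO served as negative control for bidirectional fitting.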

[1] = read-out: Monocyte Chemoattractant Protein-1 (MCP1), CCL2 (gene 6347); assay: BSK_SAg_MCP1: BioMAP Diversity Plus: SAg Assay for Monocyte Chemoattractant Protein-1 (MCP1) Biomarker Activity (AID 2283090); conditions: actives raise or lower the signal; primary human HUVEC with PBMC
Procedure: BSK_SAg is a cell-based, multiplexed-readout assay that uses umbilical vein endothelium and peripheral blood mononuclear cells, a human vascular primary cell co-culture, with measurements taken at 24 hours after chemical dosing in a 96-well plate.BSK_SAg_MCP1 is an assay component measured in the BSK_SAg assay. It measures MCP-1 antibody related to regulation of gene expression using ELISA technology.Data from the assay component BSK_SAg_MCP1 was analyzed into 1 assay endpoint. This assay endpoint, BSK_SAg_MCP1, was analyzed with bidirectional fitting relative to DMSO as the negative control and baseline of activity. Using a type of binding reporter, gain or loss-of-signal activity can be used to understand changes in the signaling as they relate to the gene CCL2. Furthermore, this assay endpoint can be referred to as a primary readout, because this assay has produced multiple assay endpoints where this one serves a signaling function. To generalize the intended target to other relatable targets, this assay endpoint is annotated to the cytokine intended target family, where the subfamily is chemotactic factor.
The levels of cell surface (or secreted, indicated by the prefix "s") biomarker endpoints were measured by ELISA. Overt cytotoxicity to cells in confluent adherent cultures (all systems other than the BT system) was assessed by measuring total protein levels using sulforhodamine B (SRB) staining in parallel cultures at the time of biomarker measurements, indicated as SRB endpoints. For proliferation assays for adherent cell types, individual cell types are cultured at sub-confluence and relative cell numbers quantified by SRB staining at time points optimized for each system (48 h: 3C and CASM3C systems; 72 h: BT and HDF3CGF systems; 96 h: SAg system). SRB was performed by staining cells with 0.1% SRB after fixation with 10% TCA and reading wells at 560 nm.Viability and proliferation of PBMC (T cells) was quantified by Alamar Blue reduction for the SAg and BT systems. For PBMC viability (referred to as PBMC Cytotoxicity within the assay endpoint names), cells were plated (75,000/well in a 96-well plate) and then chemical samples added for 1 h before addition of activators, SEB and TSST-1 (20 ng/mL final concentration each). Cells were incubated for 90 h. Then, Alamar Blue (20 uL/well) (Invitrogen, Cat DAL1100) was added for 6 h, and the plates were read with a fluorescence microplate reader at 546/580 nm (excitation/emission). For PBMC proliferation, cells were plated and activated as above but incubated for only 16 h prior to addition of Alamar Blue. Plates were read after 6 h.

[2] = read-out: E-selectin (Homo sapiens) (UniProt P16581); assay: BSK_SAg_Eselectin: BioMAP Diversity Plus: SAg Assay for Eselectin Biomarker Activity (AID 2283091); conditions: actives raise or lower the signal; primary human HUVEC with PBMC
Outline: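 Cell-surface E-selectin is read by ELISA at 24 h in the SAg co-culture of HUVEC and PBMC. Curves are fitted in both directions relative to DMSO. Parallel SRB total-protein staining tracks overt toxicity.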

[3] = read-out: Monokine induced gamma interferon (MIG), CXCL9 (gene 4283); assay: BSK_SAg_MIG: BioMAP Diversity Plus: SAg Assay for Monokine induced gamma interferon (MIG) Biomarker Activity (AID 2283092); conditions: actives raise or lower the signal; primary human HUVEC with PBMC
Outline: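 Endothelial cells and PBMC were co-cultured, exposed to test chemicals, and sampled 24 h later. MIG was measured by ELISA, and responses were fitted in both directions relative to DMSO.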

[4] = BSK_SAg_PBMCCytotoxicity: PBMC Cytotoxicity Assessment in the BioMAP Diversity Plus: SAg Assay (AID 2283093); conditions: primary human HUVEC with PBMC;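 further: fitted both ways against DMSO so a hit may be loss or gain of signal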;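 on AC50: PBMC superantigen activated with SEB plus TSST-1 one hour after compound addition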
Outline: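 Alamar Blue reduction (6 h, 546/580 nm) reports PBMC cytotoxicity after 90 h superantigen activation (SEB, TSST-1; 20 ng/mL final each) with 1 h compound pre-treatment. Gain or loss of signal fitted versus DMSO.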

[5] = read-out: Interleukin-8 (IL8), CXCL8 (gene 3576); assay: BSK_SAg_IL8: BioMAP Diversity Plus: SAg Assay for Interleukin-8 (IL8) Biomarker Activity (AID 2283094); conditions: actives raise or lower the signal; primary human HUVEC with PBMC
Outline: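 Primary human endothelial cells with PBMC, exposed 24 h; IL-8 determined by ELISA, analysed bidirectionally relative to DMSO.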

[6] = BSK_SAg_SRB: Viability Assessment in the BioMAP Diversity Plus: SAg Assay (AID 2283096); conditions: primary human HUVEC with PBMC;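 further: cells read one day after compound addition; hits may be either gain or loss of signal compared with DMSO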
Outline: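 This overt-cytotoxicity endpoint quantifies protein in human endothelial/PBMC co-cultures at 24 h using SRB absorbance (560 nm) after trichloroacetic acid fixation. Values reflect signal change from the DMSO negative control, fitted bidirectionally.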

[7] = BSK_SAg_Proliferation: Cell Proliferation Assessment in the BioMAP Diversity Plus: SAg Assay (AID 2283095); conditions: primary human HUVEC with PBMC
Outline: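 A human primary co-culture of umbilical vein endothelium and blood mononuclear cells receives compound; relative cell number is quantified at 96 h by SRB staining and 560 nm absorbance, with DMSO-referenced bidirectional curve fitting.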

[8] = target: human CYP19A1, CYP19A1 (gene 1588) (UniProt P11511); assay: NVS_ADME_hCYP19A1: NovaScreen (NVS) CYP450-related Enzyme Activity (ADME) Assay for human CYP19A1 (AID 2283098; active means hit-call score of the fitted dose curve at least 0.9, where 1 is the maximum)
Outline: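 Compounds were first screened at 10 uM in duplicate against purified enzyme, with a fluorogenic substrate and fluorescence intensity detection after 0.5 h. Inhibition appears as reduced signal against acetonitrile control.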

[9] = target: human CYP2A6, CYP2A6 (gene 1548) (UniProt P11509); assay: NVS_ADME_hCYP2A6: NovaScreen (NVS) CYP450-related Enzyme Activity (ADME) Assay for human CYP2A6 (AID 2283099; active means hit-call score of the fitted dose curve at least 0.9, where 1 is the maximum)
Procedure: NVS_ADME_hCYP2A6 is a biochemical, single-readout assay that uses extracted gene-proteins from insect cells in a cell-free assay. Measurements were taken 0.5 hour after chemical dosing in a 96-well plate.NVS_ADME_hCYP2A6 is one of one assay component(s) measured or calculated from the NVS_ADME_hCYP2A6 assay. It is designed to make measurements of enzyme activity, a form of enzyme reporter, as detected with fluorescence intensity signals by Fluorescence technology.Data from the assay component NVS_ADME_hCYP2A6 was analyzed into 1 assay endpoint. This assay endpoint, NVS_ADME_hCYP2A6, was analyzed in the positive analysis fitting direction relative to Acetonitrile as the negative control and baseline of activity. Using a type of enzyme reporter, loss-of-signal activity can be used to understand changes in the enzymatic activity as they relate to the gene CYP2A6. Furthermore, this assay endpoint can be referred to as a primary readout, because this assay has produced multiple assay endpoints where this one serves a enzymatic activity function. To generalize the intended target to other relatable targets, this assay endpoint is annotated to the cyp intended target family, where the subfamily is xenobiotic metabolism. […]

Measured: AC50

Cc1cc([N+](=O)[O-])cc([N+](=O)[O-])c1O
inactive: [3] | [6]
active: CD69, CD69 (gene 969) 13.7 µM | [1] 5.12 µM | [2] 11.8 µM | [4] 7.63 µM | [5] 5.43 µM

O=[N+]([O-])c1ccc([N+](=O)[O-])cc1
active: CD69, CD69 (gene 969) 6.32 µM | [5] 9.4 µM | [7] 11 µM
not listed: [8] | [9]
inactive: all other assays above

CN(C(=O)Cc1cccc2occc12)[C@H]1CC[C@@]2(CCCO2)C[C@@H]1N1CCCC1
not listed: [9]
inactive: all other assays above

O=C(Cl)Oc1ccccc1
not listed: [8] | [9]
inactive: all other assays above

O=C1C2CC=CCC2C(=O)N1SC(Cl)(Cl)C(Cl)Cl (stereo not given)
active: [3] 22.1 µM | [4] 6.05 µM | [7] 1.53 µM | [6] 19 µM | [9] 0.973 µM

CC(C)OP(=S)(OC(C)C)SCCNS(=O)(=O)c1ccccc1
active: CD69, CD69 (gene 969) 32.8 µM and 20 µM | [1] 30.1 µM and 31.9 µM and 33.4 µM
inactive: [8]
